Reference: US20050165102A1, “Compositions and dosage forms for enhanced absorption” (priority 2003, published 2005)

Assays:
[1] = In vivo absorption, oral gavage rat model (metformin); details: rats, end of oral gavage study
[2] = rat, in vivo, po

SMILES	macroscopic evaluation of the G.I. tract for signs of irritation [1]	macroscopic evaluation of the G.I. tract for signs of irritation [2]
CN(C)C(=N)N=C(N)N [Metformin HCl, metformin hydrochloride, reference compound]	No irritation	–
CCCCCCCCCCCC(=O)O.CN(C)C(=N)N=C(N)N [Metformin laurate]	–	No irritation

Where a name gives a salt, the structure may show the parent alone. Read-outs that look alike come from different tables or passages of the source.
